Source: patent US12281084B2, “Acetyl-CoA synthetase 2 (ACSS2) inhibitors and methods using same” (The Wistar Institute, priority 2019, dated 2025)

Tested on: BT474 tumors
Assay: BT474 tumor xenograft growth in NSG mice
Settings: 40 mg/kg once daily IP dosing (FIG. 15)
Method: For BT474 mouse xenograft studies 5-6 week old female NSG […] were anesthetized and one 17β-estradiol 60 day release pellet (Innovative Research of America Cat. No. SE-121) was injected subcutaneously via 10 gauge precision trochar into the lateral side of the neck between the ear and shoulder. 24 hours later 10^5 BT474 luciferase positive cells in 100 μl PBS:matrigel (growth factor reduced) were injected subcutaneously into the hind limb. For A7C11 and Brpkp110 xenografts, 5×10^5 cells in 100 μl PBS:Matrigel (growth factor reduced Corning Cat. No. 356231) were subcutaneously injected into the hindlimb of 5-6 week old female NSG mice […]. Following tumor establishment in all groups, mice were randomized and treated intraperitoneally (IP) daily with vehicle (10% DMSO, 10% absolute ethanol, 20% solutol, 60% water containing 0.5% Tween20) or 100 mg/kg VY-3-135 as indicated in the figure legend. Tumors were measured thrice weekly via caliper measurement and tumor volume calculated as (L×W^2)/2 (where L is the longer of the 2 measurements). […]
Mice bearing luciferase positive tumors were injected IP with 150 mg/kg sterile filtered D-luciferin potassium salt (Gold Bio Cat. No. LUCK-1G). […] Images were analyzed using Living Image Software (Perkin Elmer). […]

In the case of `CCn1c(C(O)(c2ccc(F)cc2)C(F)(F)F)nc2ccc(C(=O)Nc3cccc(S(C)(=O)=O)c3)cc21` (racemic), the BT474 tumor growth is reported as “causes a significant decrease in BT474 tumor growth”.
